Earlier results in US20200206183A1, “SYSTEMS, METHODS, AND FORMULATIONS FOR TREATING CANCER” (Research Cancer Institute of America, priority 2011, published 2020).

Conditions: subcutaneous application

Octreotide
Absorption: absorbed quickly and completely
Time to maximal plasma concentration: 30 min
